From patent US8633322B2, “Alkynyl derivatives useful as DPP-1 inhibitors” (Janssen Pharmaceutica NV, priority 2009, dated 2014)

The chains behind the UniProt entries cited, without tags or fusion partners. Residues count along the entry.
UniProt P53634, 25-463 limits assumed: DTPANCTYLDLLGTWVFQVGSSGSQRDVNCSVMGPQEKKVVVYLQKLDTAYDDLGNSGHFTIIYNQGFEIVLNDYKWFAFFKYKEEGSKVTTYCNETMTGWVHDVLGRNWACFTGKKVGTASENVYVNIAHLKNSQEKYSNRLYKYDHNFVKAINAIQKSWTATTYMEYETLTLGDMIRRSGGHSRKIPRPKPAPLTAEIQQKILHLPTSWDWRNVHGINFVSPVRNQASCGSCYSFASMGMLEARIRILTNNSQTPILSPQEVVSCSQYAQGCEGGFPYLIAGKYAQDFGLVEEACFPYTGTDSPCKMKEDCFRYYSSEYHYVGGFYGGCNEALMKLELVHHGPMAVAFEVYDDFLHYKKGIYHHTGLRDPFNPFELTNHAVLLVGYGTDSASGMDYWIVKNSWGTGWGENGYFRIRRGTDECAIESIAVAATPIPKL

Molecular target: recombinant human DPP-1 (Cathepsin C) (Homo sapiens, UniProt P53634)
Assay: DPP-1 Inhibition Assay (In Vitro), fluorogenic substrate GR-AMC
Conditions: read-out: DPP-1 Inhibition IC50; room temperature; 0.15 nM DPP-1, 10 uM GR-AMC, pH 7.0; average where tested multiple times
Experimental: Test compounds were assessed for DPP-1 (Cathepsin C) inhibitory activity using a fluorogenic substrate, GR-AMC (Glycine-Arginine-amino-4-methylcoumarin, Bachem, 1-1215). The amount of amino-methylcoumarin released is proportional to the DPP-1 activity, and the reaction is monitored kinetically with a Molecular Devices plate reader using black 96-well plates.
All compounds were tested under room temperature conditions. The assay buffer consisted of 50 mM HEPES, pH 7.0, 100 mM NaCl, 2 mM glutathione (GSH), and 0.002% TWEEN 20. GSH and TWEEN 20 were added to the buffer fresh daily. […]
Additions to a 96-well black Costar 3915 plates were as follows: 90 μL of 11 μM GR-AMC, 5 μL test compound (followed by mixing), and 5 μL 3 nM DPP1 to start the reaction. Fluorescent reactions were monitored kinetically at 360 nm excitation, 440 nm emission on a Molecular Devices Spectramax XPS reader. The Softmax Pro software of the reader determined the initial velocity of the selected data (the first 3-5 minutes of the reaction), and the best linear regression fit of the initial kinetic data. […]
Representative compounds of the present invention were tested according to the procedure as described above, with results as listed in Table 2, below. Additionally, Table 2 below lists the measured mass for said representative compounds of the present invention, more particularly the mass of the MH^+ ion.

IC50: 23 µM
Structure (SMILES): CC[C@H](N)C(=O)NCCCC#Cc1c(COC)ccc2ccccc12
